# Measured logP (octanol/water) values of organic chemicals

From the experimental data distributed with OPERA 2.9.

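OPERA's authors assembled the values from existing databases and did not measure them anew. One number stands for a compound and property, with no spread given. Method and conditions are not stated for these values. The measured form (salt, isomer or mixture) is not always the one drawn. Some entries may be limits or estimates that an upstream database listed as plain numbers.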

logP is the log10 of the octanol-water partition coefficient; higher is more lipophilic.

SMILES	logP (octanol/water)
N[C@@H](Cc1cc(Br)c(O)c(Br)c1)C(=O)O	0.05
ClC1=C(Cl)C(Cl)(C2(Cl)C(Cl)=C(Cl)C(Cl)=C2Cl)C(Cl)=C1Cl	3.23
CC(=O)O.Cc1nc(N)cc2[nH]c3ccccc3c12	1.97
C[C@@H](CO)NC(=O)[C@@H]1C=C2c3cccc4[nH]cc(c34)C[C@H]2N(C)C1	0.9
COc1ccc2c3c1O[C@H]1C(=O)CC[C@H]4[C@@H](C2)N(C)CC[C@]314	1.2
CC(=O)OO	-0.56
CNP(=O)(N1CC1C)N1CC1C (centres undefined)	1.05
CN(C)C1CCCCC1	2.01
CC(C=O)Cc1ccc2c(c1)OCO2 (centres undefined)	2.4
CCN(CC)CCO	0.21
CCCC[N+](CCCC)(CCCC)CCCC.[I-]	0.869
CN(C)CCC#N	-0.45
COc1ccc2c3c1OC1C(=O)CCC4(O)C(C2)N(C)CCC314.Cl (centres undefined)	-0.15
FC(F)(Cl)Br	2.1
N#CSCSC#N	0.34
C#CC1(O)CCC2C3C(C)CC4=CC(=O)CCC4C3CCC21C (centres undefined)	3.15
OCC(O)CCl (centres undefined)	0.502
CC(C)(C)OOC1(OOC(C)(C)C)CCCCC1	6.85
CNC1=C(c2cccc(C(F)(F)F)c2)C(=O)C(c2ccccc2)O1 (centres undefined)	3.22
CCN(CC)CCN1C(=O)CN=C(c2ccccc2F)c2cc(Cl)ccc21	3.8
COc1cnc(OC)n2nc(NS(=O)(=O)c3c(OCC(F)F)cccc3C(F)(F)F)nc12	-0.354
C=CCl	1.46
CC(C)CC(C)Nc1ccc(Nc2ccccc2)cc1 (centres undefined)	4.62
C[C@@H](O)CCO	-0.9
CCN(CC)CC#N	0.48
CN1COCN=C1N[N+](=O)[O-]	-0.35
CC(F)(Cl)Cl	2.3
Clc1ccc(C(Cl)(Cl)Cl)cn1	4
FC(F)(Br)Br	1.99
CC(=O)O[C@]1(C(C)=O)CC[C@H]2[C@@H]3CCC4=CC(=O)CC[C@@H]4[C@H]3CC[C@@]21C	2.64
Cc1cc(N)ccc1N.Cl.Cl	0.019
CC(=O)Cl	-0.47
O=CCCl	0.495
C=C(F)C(F)(F)F	2
CN1CCN(C(=O)OC2c3nccnc3C(=O)N2c2ccc(Cl)cn2)CC1 (centres undefined)	0.8
O=c1[nH]c2cc(Cl)ccc2n1C1CCNCC1	-0.15
ClCOCCl	1.045
CCOC(=O)CCSP(=S)(OC(C)C)OC(C)C	3.83
C#CC(O)(C=CCl)CC (centres undefined)	1.8
Cn1sc(Cl)cc1=O	0.401
Sc1ccccc1Cl	1.96
CC12CCC(CC1)C(C)(C)[N+]([O-])=[N+]2[O-]	-1.258
CC1NCCOC1c1ccccc1 (centres undefined)	1.7
CCN(CC)P(Cl)(Cc1ccccc1)(c1ccccc1)c1ccccc1	-0.73
S=C(SSC(=S)N(Cc1ccccc1)Cc1ccccc1)N(Cc1ccccc1)Cc1ccccc1	3.7
CCN(C(=O)n1nnn(-c2ccccc2Cl)c1=O)C1CCCCC1	3.6
O=CC=O	-1

8 of these entries, quoted again:

| SMILES | logP (octanol/water) |
|---|---|
| O=CC=O | -1 |
| COc1ccc2c3c1O[C@H]1C(=O)CC[C@H]4[C@@H](C2)N(C)CC[C@]314 | 1.2 |
| Clc1ccc(C(Cl)(Cl)Cl)cn1 | 4 |
| CNP(=O)(N1CC1C)N1CC1C (centres undefined) | 1.05 |
| O=c1[nH]c2cc(Cl)ccc2n1C1CCNCC1 | -0.15 |
| N[C@@H](Cc1cc(Br)c(O)c(Br)c1)C(=O)O | 0.05 |
| ClCOCCl | 1.045 |
| O=CCCl | 0.495 |